In PMC7723054:
The other results are listed elsewhere or left out.

T1: LIN28A (human?, UniProt Q9H9Z2 1-209)
T1 sequence: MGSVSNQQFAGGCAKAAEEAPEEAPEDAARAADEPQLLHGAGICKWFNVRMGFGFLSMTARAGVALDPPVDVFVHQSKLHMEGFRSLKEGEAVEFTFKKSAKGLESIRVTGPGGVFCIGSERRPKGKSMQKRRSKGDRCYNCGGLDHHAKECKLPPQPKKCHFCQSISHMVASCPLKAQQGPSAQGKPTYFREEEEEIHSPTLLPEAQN

T2: CIRBP (Homo sapiens, UniProt Q14011 1-172)
T2 sequence: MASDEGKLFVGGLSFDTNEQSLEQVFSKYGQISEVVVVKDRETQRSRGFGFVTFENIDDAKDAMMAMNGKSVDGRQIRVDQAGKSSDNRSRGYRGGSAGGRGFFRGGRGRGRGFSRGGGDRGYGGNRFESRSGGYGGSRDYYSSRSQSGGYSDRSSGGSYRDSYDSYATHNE

T3: DHX36 (Homo sapiens, UniProt Q9H2U1 1-1008)
T3 sequence: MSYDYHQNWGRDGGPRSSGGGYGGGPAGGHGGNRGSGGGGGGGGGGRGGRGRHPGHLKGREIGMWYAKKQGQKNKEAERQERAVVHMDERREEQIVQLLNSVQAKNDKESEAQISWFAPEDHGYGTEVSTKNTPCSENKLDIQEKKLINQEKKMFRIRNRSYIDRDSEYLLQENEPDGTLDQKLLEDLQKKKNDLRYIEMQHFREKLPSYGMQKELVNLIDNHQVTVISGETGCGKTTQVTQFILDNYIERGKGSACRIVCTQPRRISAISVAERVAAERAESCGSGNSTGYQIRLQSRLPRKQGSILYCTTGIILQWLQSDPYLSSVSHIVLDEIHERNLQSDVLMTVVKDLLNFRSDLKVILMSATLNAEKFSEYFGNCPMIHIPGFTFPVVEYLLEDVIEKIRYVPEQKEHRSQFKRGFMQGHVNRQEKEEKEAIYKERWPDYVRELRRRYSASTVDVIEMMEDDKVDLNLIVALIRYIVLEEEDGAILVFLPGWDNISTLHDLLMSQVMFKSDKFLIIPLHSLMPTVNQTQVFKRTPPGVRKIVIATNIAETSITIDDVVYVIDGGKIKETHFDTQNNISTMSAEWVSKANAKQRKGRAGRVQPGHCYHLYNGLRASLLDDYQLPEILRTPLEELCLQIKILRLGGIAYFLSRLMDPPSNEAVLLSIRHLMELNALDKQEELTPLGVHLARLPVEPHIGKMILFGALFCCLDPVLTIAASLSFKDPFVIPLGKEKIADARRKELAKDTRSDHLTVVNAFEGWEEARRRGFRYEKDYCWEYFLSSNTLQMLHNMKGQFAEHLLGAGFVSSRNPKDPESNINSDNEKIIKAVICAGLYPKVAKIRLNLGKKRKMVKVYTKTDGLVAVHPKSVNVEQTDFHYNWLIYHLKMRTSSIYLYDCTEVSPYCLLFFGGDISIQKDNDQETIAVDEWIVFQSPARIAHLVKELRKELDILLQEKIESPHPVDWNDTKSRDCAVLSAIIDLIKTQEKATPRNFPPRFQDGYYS

B1: hsa-mir-1914 (structured_RNA)
RNA: GGGAAGAAAAUUCCCAGCAAACUCCCCUGGUGUACGAAGUUUCAGCCUUCUGCUUCCUCUUAGCGCAGGAGGCUGAAGCUUCGUGCAC
B2: hsa-mir-2467 (structured_RNA)
RNA: GGGAACCACUCAGUUCGCUAAUCCAUAGGGUGUACGAAGUUUCAGCGGCUCUGGGUCCUGCUCCUUAGAGCAGCUGAAGCUUCGUGCAC
B3: hsa-mir-4520-2 (structured_RNA)
RNA: GGGAAAACUUCGGGGCUCCCGUACAUCUGGUGUACGAAGUUUCAGCCCAAAUCCUUUUCUGAUUUGGGCUGAAGCUUCGUGCAC
B4: hsa-mir-3622b (structured_RNA)
RNA: GGGAACAGGUUAUCCUUUGGACGCAAUCGGUGUACGAAGUUUCAGCGUGAGCUCAGCUCCCUGCCUCACGCUGAAGCUUCGUGCAC
B5: hsa-mir-6744 (structured_RNA)
RNA: GGGAAUCCUGUAGAGGAUACCGACAAGAGGUGUACGAAGUUUCAGCGCCUCCUGGAUCUCUAGGUCUCAGGGCGCUGAAGCUUCGUGCAC
B6: hsa-mir-3916 (structured_RNA)
RNA: GGGAACAUGCCGUACUAGGCAGUCCCUUGGUGUACGAAGUUUCAGCUCAGGUGAAUGUGUCUGGGCUGAAGCUUCGUGCAC
B7: hsa-mir-8067 (structured_RNA)
RNA: GGGAAAUCCCACUCUCGCGUCAUGCAGUGGUGUACGAAGUUUCAGCUCAUAAAGAUGAUCGCUGAAGCUUCGUGCAC
B8: hsa-mir-548aj-2 (structured_RNA)
RNA: GGGACCAAUGUACACGCCUGUCUCAGACGGUGUACGAAGUUUCAGCUUUGCUAUUACUUUUAAUGGUAAAGCUGAAGCUUCGUGCAC
B9: hsa-mir-1269b (structured_RNA)
RNA: GGGACCAAACAUUCGUAUCUUCCCCACUGGUGUACGAAGUUUCAGCCUGGCUUCUCUGGUUCUCCAGCUUACAGGCUGAAGCUUCGUGCAC
B10: hsa-mir-1288 (structured_RNA)
RNA: GGGAACGAGACGCCCAUCCGUUACCUAGGGUGUACGAAGUUUCAGCCUCACCAUAGUGGUGGAGCUGAAGCUUCGUGCAC
B11: hsa-mir-4449 (structured_RNA)
RNA: GGGAACGUGAGUACCGCGCACAUCUAAAGGUGUACGAAGUUUCAGCGGCGGGCGGCGGUGCCCGUCGCUGAAGCUUCGUGCAC
B12: hsa-mir-1200 (structured_RNA)
RNA: GGGACAUGUCUUCGAUCCAAUGGAAAGAGGUGUACGAAGUUUCAGCCCUCAAUCACUUGCCAGAGAGAUUGGGCUGAAGCUUCGUGCAC
B13: hsa-mir-513c (structured_RNA)
RNA: GGGAGUCUGCAUACCGAUUGCACCCGAAGGUGUACGAAGUUUCAGCUUUAUGUGAACUAAAAUAUAAAGCUGAAGCUUCGUGCAC
B14: hsa-mir-1181 (structured_RNA)
RNA: GGGAACGAGGCUGACCUUGGGCAAUAGGGGUGUACGAAGUUUCAGCGCCGGAGCGGGCGCUGAAGCUUCGUGCAC
B15: hsa-mir-4670 (structured_RNA)
RNA: GGGAGCUUCCAUAAUAGCAGUCUCGUGUGGUGUACGAAGUUUCAGCUUCACAGACUCUCCAAAAGUCUGAAGCUGAAGCUUCGUGCAC
B16: hsa-mir-4295 (structured_RNA)
RNA: GGGAAGCGCAGUAGGUGAUAUCCGUUCCGGUGUACGAAGUUUCAGCCCUUGCCUGUGGCAAGACCACUUCGGUUCAAGGGCUGAAGCUUCGUGCAC
B17: hsa-mir-1202 (structured_RNA)
RNA: GGGACAUAGGUUAAGAUAUGUCCCGAUCGGUGUACGAAGUUUCAGCGGAGGCACUGCCAGGGCUGCCCACGCUGAAGCUUCGUGCAC
B18: hsa-mir-4318 (structured_RNA)
RNA: GGGAAUAAAAGAAACGCGCUUACCAGACGGUGUACGAAGUUUCAGCUGUGGACAAGGGCCUUGUCUUAGACAGUCACUGCUGAAGCUUCGUGCAC
B19: hsa-mir-3160-1 (structured_RNA)
RNA: GGGAACUGCCUCUCGGGUAACCAACAAAGGUGUACGAAGUUUCAGCCUCUCCUCCAGCUCAGCUGGUCAGGAGAGGCUGAAGCUUCGUGCAC
B20: hsa-mir-6776 (structured_RNA)
RNA: GGGAAUCGUGAAGAAACGGUUCCCUGACGGUGUACGAAGUUUCAGCGGUUCCCACGCCGCGGCAACCGCUGAAGCUUCGUGCAC
B21: NEAT1_ParasoR_ID6 (structured_RNA)
RNA: GGGAACGUUGGCGGCCUAGAUUAAGACUGGUGUACGAAGUUUCAGCUACUAAAAUGUAGCUGAAGCUUCGUGCAC
B22: NEAT1_ParasoR_ID52 (structured_RNA)
RNA: GGGAACGGAUUAAGACCGUGCAUCAACUGGUGUACGAAGUUUCAGCGGCCCCCAGGGUCGCUGAAGCUUCGUGCAC
B23: hsa-mir-548f-4 (structured_RNA)
RNA: GGGAAAAGCGCUUGAGUAGACCUACCACGGUGUACGAAGUUUCAGCUUUUGCCAUUAAAAGUAAUGACAAAAGCUGAAGCUUCGUGCAC
B24: hsa-mir-4780 (structured_RNA)
RNA: GGGAAAUGGAUAAUAACGAACUCGGAGCGGUGUACGAAGUUUCAGCGGACCAGCCCAAAGGCCAGGCCUGACCCGCUGAAGCUUCGUGCAC

Columns and labels:
Assay in all cases: FOREST: bead pull-down of RNA structure library v1, barcode microarray; U1A/LIN28A: 20 mM HEPES pH 7.5, 80 mM KCl, 20 mM NaCl, 10% glycerol, 2 mM DTT, 0.1 ug/uL BSA, 4 C; BG4/CIRBP/DHX36: 10 mM Tris-HCl pH 7.5, 100 mM KCl (or LiCl),; high values mean tight binding
[1] = biological target: T1, LIN28A
[2] = biological target: T2, CIRBP
[3] = biological target: T3, DHX36

Binder | binding signal [1] | binding signal [2] | binding signal [3]
B1 | -2.52 z-score | -0.295 z-score | -1.39 z-score
B2 | -2.4 z-score | -1 z-score | -0.935 z-score
B3 | -2.41 z-score | -1.88 z-score | -0.278 z-score
B4 | -2.38 z-score | -0.498 z-score | -1.16 z-score
B5 | -2.41 z-score | -1.25 z-score | -1.6 z-score
B6 | -2.45 z-score | -0.107 z-score | -1.05 z-score
B7 | -2.59 z-score | -1.55 z-score | -2.22 z-score
B8 | -2.6 z-score | 0.0186 z-score | -0.792 z-score
B9 | -2.56 z-score | -1.71 z-score | -0.347 z-score
B10 | -2.96 z-score | -2.89 z-score | -1.55 z-score
B11 | -2.87 z-score | -1.39 z-score | -0.978 z-score
B12 | -2.48 z-score | 0.109 z-score | -1.16 z-score
B13 |  | -1.22 z-score | -1.41 z-score
B14 | -2.41 z-score | -0.879 z-score | -0.258 z-score
B15 | -2.47 z-score | -1.23 z-score | -1.06 z-score
B16 | -2.41 z-score | -0.636 z-score | -0.429 z-score
B17 | -2.9 z-score | -1.81 z-score | -2 z-score
B18 |  | 0.9 z-score | 0.232 z-score
B19 | -2.8 z-score | -0.454 z-score | -1.07 z-score
B20 | -3.55 z-score | -2.36 z-score | -1.71 z-score
B21 | -2.41 z-score | -0.829 z-score | -1.05 z-score
B22 | -2.52 z-score | -0.377 z-score | -1.12 z-score
B23 | -2.68 z-score | -0.604 z-score | -0.716 z-score
B24 |  | 1.15 z-score | 0.53 z-score
